According to patent US7754772B2, “Nitrosated nonsteroidal antiinflammatory compounds, compositions and methods of use” (NicOx, S.A., priority 2002, dated 2010):
Only a part of the results on these compounds is given; other tests are left out.

System: Male Sprague-Dawley rats, carrageenan paw edema
Assay: rat paw edema test (carrageenan), antiinflammatory activity
Settings: oral gavage one hour prior to subplantar carrageenan, paw volume three hours later, expressed as ratio (Vehicle = 1)

Substance: Phosphonomethyl (2S)-2-(6-methoxy(2-naphthyl))propanoate 3-(nitrooxy) propylamine nitric acid salt
- Relative Activity Antiinflammation: 0.85
